# In BindingDB's records for doi:10.1038/nchembio.421 (Novartis Institutes for BioMedical Research, 2010):
# Target: T1, Farnesyl pyrophosphate synthase (Homo sapiens, UniProt P14324)
# T1 sequence (P14324 whole entry): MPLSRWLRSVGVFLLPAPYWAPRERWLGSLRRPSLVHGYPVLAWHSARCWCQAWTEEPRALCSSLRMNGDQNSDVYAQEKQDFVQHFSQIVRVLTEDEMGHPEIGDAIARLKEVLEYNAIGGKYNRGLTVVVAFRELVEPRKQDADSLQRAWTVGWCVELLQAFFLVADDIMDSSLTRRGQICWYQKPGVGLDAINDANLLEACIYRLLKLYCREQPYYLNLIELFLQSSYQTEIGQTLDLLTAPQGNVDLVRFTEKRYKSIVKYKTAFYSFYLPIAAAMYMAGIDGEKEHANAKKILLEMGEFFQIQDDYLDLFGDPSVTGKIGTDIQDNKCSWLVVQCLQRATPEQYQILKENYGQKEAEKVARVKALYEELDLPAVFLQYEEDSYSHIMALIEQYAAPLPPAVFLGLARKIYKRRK
# Experiment: Biophysical assay
# Conditions: pH 7.4; 23 °C
row,IC50 [µM],SMILES
1,2,O=C(O)Cc1c(C(=O)O)[nH]c2c(Cl)ccc(Cl)c12 [CID46398841]
2,6,O=C(O)Cc1c(C(=O)O)[nH]c2c(Cl)cc(Cl)cc12 [CID46398845]
